Measurements published in US6960590B2, “Orally active salts with tyrosine kinase activity” (Merck & Co. Inc., priority 2000, dated 2005).

Experiment: Solubility of salts of 4-9 prepared in situ (pH and concentration by HPLC)
Type: physicochemical
Settings: free base plus 1.05 mole equivalents of acid, suspended in 100 μL of water, rotated overnight, centrifuged
Method: Two forms of the mesylate salt were made: Salt 4-9A above and Salt 4-9B below. Numerous salts of 4-9 were prepared in situ and analyzed using the procedure outlined below, • 1) 1.25×10^−5 moles of free base were placed in a centrifuge tube. • 2) The free base was then reacted with 1.05 mole equivalents of acid. • 3) The reagents were mixed with a Vortex mixer and left to stand at room temperature or warmed if needed to dissolve the solid. • 4) 100 μL of water were added to suspend the solid. • 5) Tube was then covered with aluminum foil and spun overnight on a rotator. • 6) The tube was then spun in a centrifuge for 10 minutes at 10,000 RPM. • 7) An aliquot was removed from the sample and dried with nitrogen overnight to produce the solid residue (salt) which was analyzed via microscopy and DCS. • 8) The liquid residue from the remaining sample was used to measure pH and determine the concentration of salt by HPLC.

COCCN(C)CCOc1ccc2[nH]c(-c3cc4ccccc4[nH]c3=O)cc2c1 [Tartrate salt of 4-9, 3-(5-{2-[(2-methoxyethyl)(methyl)amino]ethoxy}-1H-indol-2-yl)-2(1H)-quinolinone]
Solubility: 25.3 mg/mL

Counter-ions that a name gives are not always drawn.
